{"source": "paper PMC12836348", "about": "“Alanine Mutagenesis Identifies Specific Amino Acids of Nemertide Alpha‑1 Activity and Its Binding to Target Receptors” (Journal of Natural Products, 2025)", "test_system": "AaNav", "assay": "Ion channel panel, AaNav", "type": "cell-based, Aedes aegypti", "set-up": "key: “+” means tested and produced effect; “–“ means tested but no effect", "details": "S12A at 5 μM; Xenopus oocytes, n ≥ 3", "protocol": "For the expression of NaV channels (hNav1.1, rNaV1.2, rNaV1.3, rNaV1.4, hNaV1.5, hNaV1.6, hNav1.7, and the insect channel BgNaV1) in Xenopus laevis oocytes, the linearized plasmids were transcribed using the T7 or SP6 mMESSAGE-mMACHINE transcription kit (Ambion, Carlsbad, CA, USA). The harvesting of stage V and VI oocytes from an anaesthetized female X. laevis frog was described previously. , Oocytes were injected with 50 nL of cRNA at a concentration of 1 ng/nL using a microinjector (Drummond Scientific, Broomall, PA, USA). The oocytes were incubated in a solution containing 96 mM NaCl, 2 mM KCl, 1.8 mM CaCl2, 2 mM MgCl2, and 5 mM HEPES (pH 7.4), supplemented with 50 mg/L gentamycin sulfate. […] Whole-cell currents from oocytes were recorded 1–4 days after injection. […]\nTo assess the concentration–response relationships, data were fitted with the Hill equation: y = 100/[1 + (EC50/[toxin])^ h ], where y is the amplitude of the toxin-induced effect (y = I 30 ms/I peak where I 30 ms is the current value at 30 ms in the presence of toxin and I peak is the peak current amplitude in control conditions), EC50 is the toxin concentration at half-maximal efficacy, [toxin] is the toxin concentration, and h is the Hill coefficient. […] ASIC1a currents were measured in ND96 solutions at a pH of 7.4 and 4.5, at a holding potential of −70 mV during 400 s, and the data were filtered at 20 Hz. […]", "data": [{"smiles": "CC[C@H](C)[C@@H]1NC(=O)[C@@H](NC(=O)CN)CSSC[C@@H]2NC(=O)[C@@H]3CSSC[C@@H](C(=O)N[C@@H](CC(N)=O)C(=O)N4C[C@H](O)C[C@H]4C(=O)N4C[C@H](O)C[C@H]4C(=O)N[C@@H](CC(N)=O)C(=O)N[C@@H](CCC(N)=O)C(=O)O)NC(=O)[C@H](CCCCN)NC(=O)[C@H](Cc4ccccc4)NC(=O)[C@H](CC(N)=O)NC(=O)[C@H](Cc4c[nH]c5ccccc45)NC(=O)CNC(=O)[C@H](CSSC[C@H](NC(=O)[C@H](Cc4ccccc4)NC(=O)[C@H](CO)NC(=O)CNC(=O)[C@H]([C@@H](C)O)NC(=O)[C@H](C)NC1=O)C(=O)N[C@@H]([C@@H](C)O)C(=O)N[C@@H](CC(C)C)C(=O)N[C@@H](C)C(=O)N[C@@H](CCCCN)C(=O)NCC(=O)N3)NC(=O)[C@H](CC(N)=O)NC(=O)[C@H](CCCCN)NC(=O)[C@H]([C@@H](C)O)NC2=O", "note": "[Peptide S12A]", "values": [{"measurement": "effect on AaNav", "value": "+"}]}]}
